Values of other authors in patent publication US5625061A, “Compounds useful in preparing antiproliferative agents and garft inhibitors” (Agouron Pharmaceuticals, Inc., priority 1995, dated 1997).

Tested on: tumor
Settings: F. M. Muggia, New Drugs, 1992; cited from earlier work

Nc1nc2c(c(=O)[nH]1)CC(CCc1ccc(C(=O)N[C@@H](CCC(=O)O)C(=O)O)cc1)CN2 (stereo partly shown) [5,10-dideazatetrahydrofolic acid]
antitumor activity (in words): antitumor activity
